Measurements from patent US8741932B2, “Imidazopyridine derivatives” (Piramal Enterprises Limited, priority 2009, dated 2014).

Columns and labels:
H460 = assay: Cytotoxicity assay (propidium iodide), H460; type: cell-based; details: H460 (C1b, lung); 48 hours
HT29 = assay: Cytotoxicity assay (propidium iodide), HT29; type: cell-based; details: HT29 (C4a, colon); 48 hours
A2780 = assay: Cytotoxicity assay (propidium iodide), A2780; type: cell-based; details: A2780 (C3a, ovarian); 48 hours
A549 = assay: Cytotoxicity assay (propidium iodide), A549; type: cell-based; details: A549 (C1a, lung); 48 hours
MDA MB 231 = assay: Cytotoxicity assay (propidium iodide), MDA MB 231; type: cell-based; details: MDA MB 231 (C6a, breast); 48 hours

Measured: IC50

N-methyl-1-phenyl-N′-((6-pyridin-3-yl) imidazo[1,2-a]pyridine-3-yl) methylene)benzenesulfonohydrazide [Example 28]
> 5 µM: H460 | HT29 | A2780 | A549 | PC3 | MDA MB 231
